Data published in patent US20260258049A1, “Molecules and Methods Related to Treatment of Uncontrolled Cellular Proliferation” (ST. JUDE CHILDREN'S RESEARCH HOSPITAL, priority 2019, published 2026).

Sequences of proteins named here, by UniProt entry; tags and fusion partners are left off.
UniProt O60674, whole entry I682F: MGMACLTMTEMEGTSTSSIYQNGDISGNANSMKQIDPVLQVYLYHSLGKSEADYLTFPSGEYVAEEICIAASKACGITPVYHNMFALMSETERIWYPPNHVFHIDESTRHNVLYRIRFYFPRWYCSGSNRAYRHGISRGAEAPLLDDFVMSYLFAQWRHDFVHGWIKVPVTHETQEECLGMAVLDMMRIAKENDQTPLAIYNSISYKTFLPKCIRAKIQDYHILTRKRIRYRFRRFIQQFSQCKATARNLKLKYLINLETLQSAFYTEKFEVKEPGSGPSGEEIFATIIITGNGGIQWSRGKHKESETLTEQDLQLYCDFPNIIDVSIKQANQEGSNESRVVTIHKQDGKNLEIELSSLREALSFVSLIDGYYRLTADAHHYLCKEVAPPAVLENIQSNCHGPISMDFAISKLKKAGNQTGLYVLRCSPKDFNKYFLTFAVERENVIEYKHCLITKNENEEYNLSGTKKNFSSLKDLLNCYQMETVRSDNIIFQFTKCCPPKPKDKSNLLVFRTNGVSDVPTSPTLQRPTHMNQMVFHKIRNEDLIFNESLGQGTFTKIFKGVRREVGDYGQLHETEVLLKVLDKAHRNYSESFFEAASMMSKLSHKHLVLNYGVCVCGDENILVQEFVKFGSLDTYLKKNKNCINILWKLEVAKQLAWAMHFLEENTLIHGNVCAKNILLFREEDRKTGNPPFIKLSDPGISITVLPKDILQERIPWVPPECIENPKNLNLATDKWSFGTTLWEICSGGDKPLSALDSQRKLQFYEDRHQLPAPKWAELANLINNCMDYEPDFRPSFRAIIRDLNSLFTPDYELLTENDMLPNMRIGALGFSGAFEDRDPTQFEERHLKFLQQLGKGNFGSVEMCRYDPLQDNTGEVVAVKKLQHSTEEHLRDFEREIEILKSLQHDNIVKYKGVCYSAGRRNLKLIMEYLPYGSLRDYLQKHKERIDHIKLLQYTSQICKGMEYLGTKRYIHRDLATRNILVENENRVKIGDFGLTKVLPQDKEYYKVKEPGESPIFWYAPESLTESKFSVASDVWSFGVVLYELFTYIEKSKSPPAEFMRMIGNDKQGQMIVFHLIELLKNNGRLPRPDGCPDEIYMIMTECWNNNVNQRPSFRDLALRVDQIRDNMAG

Key:
[1] = target: T1, JAK2 (Homo sapiens, UniProt O60674, I682F); assay: Immunoblot protein degradation in MHH-CALL-4 cells; format: cell-based
T1 construct: degradation of JAK2 and GSPT1 in MHH-CALL-4 cells; endogenous in cells; host or cells: MHH-CALL-4

[2] = system: MHH-CALL-4; assay: Cytotoxicity assay (resazurin, 72 hours); format: cell-based; conditions: Homo sapiens, MHHCALL4, read-out: HHCALL4 (nM), MHHCALL4 EC50
[3] = system: JAK-STAT5 signaling pathway; assay: Phosphoflow analysis in MHH-CALL-4 cells with or without TSLP; format: cell-based, human; conditions: 1 μM, one hour before TSLP 25 ng/mL for 30 minutes
Experimental: Cells (7.5×105) were treated with compounds in 3 ml of IMDM containing 1% BSA for one hour followed by treatment with or without 25 ng/mL TSLP (R&D systems) for 30 minutes. Cells were fixed for 10 minutes at room temperature by adding 1 ml of 10% UltraPure Formaldehyde (Polysciences), centrifuged for 5 minutes at 450 g, resuspended in 95% methanol (Electron Microscopy Sciences) and store at −20° C. Cells were stained with phosphorylated (p)STAT5-Ax647(#612599, BD), pJAK2 Y1007/1008 (#3776, Cell Signaling Technologies), Anti-Rabbit-BV-421 (#406410, Biolegend), hCD45-BV605 (#564047, BD) and hCD19-PE (t #349209, BD). Mouse IgG2u-Ax647 (Cat #558053, BD) was used as isotype control. Cells were analyzed on BD Biosciences LSR/Fortessa (BD Biosciences, Franklin Lakes, NJ) with BD FACSDiva 7.0 software followed by FlowJo v10 (Tree Star, Inc., Ashland, OR).

[4] = system: Human CD45+ leukemic cells purified from patient derived xenografts (PDX); assay: Ex vivo cytotoxicity (MTT)

Compound: CCS(=O)(=O)N1CC(CC#N)(n2cc(-c3nc(Nc4ccc(C(=O)NCCN5CCN(c6ccc7c(c6)C(=O)N(C6CCC(=O)NC6=O)C7=O)CC5)cc4)nc4[nH]ccc34)cn2)C1 (stereo not shown) [Compound 8]
- extent of degradation of JAK2 [1]: preferential
- EC50 [2]: 3200 nM

Compound: N#CC[C@H](C1CCCC1)n1cc(-c2ncnc3[nH]ccc23)cn1 [Ruxolitinib, reference compound]
- JAK inhibition (phosphoflow) [3]: comparable JAK inhibition
- cytotoxicity in PDX cells ex vivo [4]: not
